This test is described as follows: Binding affinity to chymotrypsin (unknown origin) assessed as acetylation at pH 7. To be noted: Homo sapiens.

With `O=C(Oc1ccc([N+](=O)[O-])cc1[N+](=O)[O-])c1ccc([N+](=O)[O-])cc1`, the log K stood at 6.17.

(Values after ChEMBL document CHEMBL3272151, “Quantitative structure-activity relationship of chymotrypsin-ligand interactions” (J Med Chem, 1977).)
